# Nrf2 inh: Nrf2 pathway inhibition | Potency, µM (doses to about 46 µM), without a hit: at the top dose activity change, negative = inhibition, usual class: inhibitors | A549 ARE-Fluc reporter, luciferase luminescence, 18-24 h | actives 2.1% (n = 360,000); also: potency is read from the fitted curve at half-maximal effect; % is scaled to controls: 0 for no effect and ±100 for the full control effect; nearly all actives have a fitted effect of over 60% in size
#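 Two sequential reads on A549 ARE_Fluc cells exposed to compound for 18-24 h: a CellTiter-Fluor fluorescence read for viability, then a luciferase luminescence read for Nrf2/ARE activity.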
# miR-21 reporter: miR-21 reporter, rising signal; HeLa miR-21 FLuc reporter, luciferase, 48 h; Potency, µM (highest dose often 38.3 µM), for the others: top-dose reporter change, positive = more light; 340,000 tested, under 10 active; AID 2288; active = well fitted rising curve with a large enough effect; inconclusive = small, poorly fitted or top-dose-only effect; inactive = no such curve, though single readings can be large or run the other way;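 further: % of control where 0% means no effect; miR-21 action dims this reporter so a rising signal means less miR-21 action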
#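 HeLa miR-21-FLuc reporter line, endogenous miR-21; 2000 cells/well in DMEM/10% FBS; compound titration up to ~40uM final, 48 h, 37 degree Celsius; luciferase detection reagent, 15 min lysis, CCD luminescence.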
# Nrf2 activator: activators of Nrf2 (ARE) signaling; AREc32 ARE-luciferase reporter (MCF7-derived line), luminescence, 24 h; Potency, µM (highest dose often 46.1 µM), without a hit: top-dose activation, actives largely listed as activators; actives 0.31% (n = 410,000); also: potency is read from the fitted curve at half-maximal effect; % of control where 0% means no effect; nearly all actives have a fitted effect of over 65% in size
#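 Cells of the AREc32 ARE-luciferase line are plated in OPTI-MEM containing 5% FBS and left overnight at 37 deg C. Compounds are pinned in, incubation continues 24 hr, and firefly luciferase signal is then measured.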
# A549 tox: counter-screen for Nrf2 inhibitors: cytotoxicity in A549 cells; AID 504648; Potency, µM (titrated, usually from 46 µM), for the others: at the top dose activity change, negative = cytotoxicity, usual class: inhibitors; A549 ARE-Fluc cells, CellTiter-Fluor viability, 18-24 h; actives 0.16% (n = 390,000); also: potency is read from the fitted curve at half-maximal effect; % is scaled to controls: 0 for no effect and ±100 for the full control effect
#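 Cytotoxicity counterscreen: CellTiter-Fluor fluorescence was measured in A549 ARE_Fluc cells after 18-24 h of compound exposure in a concentration series. The subsequent BugLite luminescent read reports ARE-luciferase activity.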
# ClpP mod: qHTS Assay for Activators of ClpP. ATP-dependent Clp protease proteolytic subunit (Bacillus subtilis (strain 168)), P80244. Potency, µM (series often up to 57.5 µM), for the others: at the highest dose activity change, negative = active. AID 651965, 2013. actives 1.9% (n = 340,000). purified B. subtilis ClpP, FRET peptide cleavage, 20 min; active = well fitted falling curve with a large enough effect; inconclusive = small, poorly fitted or top-dose-only effect; inactive = no such curve, though single readings can be large or run the other way; also: potency is read from the fitted curve at half-maximal effect; the source files actives as falling curves though it sought activators and does not explain the sign; nearly all actives have a fitted effect of over 65% in size
#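 Purified B. subtilis ClpP, 10 microg/mL final in Tris/HCl pH8 with KCl, BSA, glycerol and Tween-20, cleaved an Abz/nitrotyrosine-quenched decapeptide. Fluorescence (ex 320, em 430) was read at 0 and 20 min at room temperature. Delta was normalized to 5.8 microM ADEP and DMSO/no-enzyme controls.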
# TCR act: T cell receptor activation; Potency, µM (doses to about 9.22 µM), for the others: at the highest dose activation of IL-2 secretion, hits mostly activators; primary human leukocytes, anti-CD3, IL-2 HTRF, 48 h; 330,000 tested, under 10 active; also: % of control where 0% means no effect
#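 Compounds are tested in HTS on primary human leukocytes co-incubated with a-CD3 beads for 48 hr. IL-2 output is measured by time-resolved FRET.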
# * = called active by the depositor; ? = inconclusive; nt = not tested or not shown; [ ] = dose if it differs, or a comment. Only some compounds are listed: those with a hit (about 3.7% of all), similar ones and a draw of the others. Unless noted, calls follow the shape of the dose curve; as a rule, active = well fitted curve in the direction sought with a large enough effect; inconclusive = small, poorly fitted or top-dose-only effect, or another doubt; inactive = no such curve, though single readings can be large; an effect the other way counts as inactive or inconclusive.
entry	smiles	Nrf2 inh	miR-21 reporter	Nrf2 activator
1	Cc1cc2c(s1)c1cnn(Cc3ccccc3Cl)c(=O)c1n2C	18%	nt	nt
2	COC(=O)c1cc2c(ccn2-c2ccc(F)cc2)n1CC(=O)C(C)(C)C	-22%	1%	0%
3	Cc1ccc2[nH]c3nc(NN)nnc3c2c1	-4%	-19%	4%
4	Cc1ccc2[nH]c3nc(SCCN4CCOCC4)nnc3c2c1	1%	-26%	1%
5	CC(C)Oc1ccc(CNC(=O)c2cccc(NC(=O)N3CCSc4ncccc43)c2)cc1	23µM*	5%	3%
6	Cc1ccccc1CNC(=O)c1cccc(NC(=O)N2CCSc3ncccc32)c1	-27%	?	3%
7	CCOc1ccc(CNC(=O)c2cccc(NC(=O)N3CCSc4ncccc43)c2)cc1	?	24%	3%
8	Cc1ccc(NC(=O)c2ccc(CN3CC(=O)N4CCCCC4C3=O)cc2)cc1C (configuration not stated)	7%	4%	5%
9	CN(CC(=O)Nc1ccc(Cl)c(C(F)(F)F)c1)CC(=O)NC1CCCCC1	12µM*	nt	0%
10	CN(CC(=O)NCc1ccccc1)CC(=O)Nc1ccc(Cl)c(C(F)(F)F)c1	-15%	nt	3%
11	CN(CC(=O)Nc1cccc(S(=O)(=O)N2CCCC2)c1)CC(=O)Nc1ccc(Cl)c(C(F)(F)F)c1	26µM*	nt	1%
12	CN(CC(=O)Nc1cccc(S(=O)(=O)N2CCCC2)c1)CC(=O)Nc1ccc(F)c(F)c1F	?	nt	4%
13	CN(CC(=O)Nc1ccc(Cl)c(C(F)(F)F)c1)C(=O)c1ccc2c(c1)NC(=O)CS2	21µM*	nt	0%
14	CCn1c(=O)sc2cc(NS(=O)(=O)c3ccc(F)c(C)c3)ccc21	18µM*	16%	14%
15	Cc1cc(S(=O)(=O)Nc2ccc3[nH]c(=O)sc3c2)ccc1F	nt	-1%	6%

entry	A549 tox	ClpP mod	TCR act
1	-5%	nt	nt
2	15%	25µM*	-7%
3	-9%	28µM*	nt
4	nt	0%	1%
5	4%	?	nt
6	6%	32µM*	nt
7	2%	-14%	nt
8	8%	-2%	nt
9	?	0%	0%
10	-1%	1%	7%
11	?	nt	-4%
12	-24%	-7%	-6%
13	-16%	-1%	-9%
14	-3%	0%	nt
15	-1%	-2%	nt

# Continuation:
entry	smiles	Nrf2 inh	miR-21 reporter	Nrf2 activator
16	CCCCC#Cc1cncc(C(=O)NN)c1	18µM*	-2%	0%
17	Cc1cc2c(s1)c1cnn(Cc3c(Cl)cccc3Br)c(=O)c1n2C	16%	nt	nt
18	CCOc1cc(C2NC(=O)c3c(sc4c3CCN(C)C4)N2)ccc1OC(=O)c1ccccc1Cl (configuration not stated)	8.2µM*	-8%	-2%
19	COc1ccc(C(=O)Oc2ccc(C3NC(=O)c4c(sc5c4CCN(C)C5)N3)cc2OC)cc1 (configuration not stated)	2%	-14%	6%
20	CC(C)c1ccc(C2NC(=O)c3c(sc4c3CCN(C)C4)N2)cc1 (configuration not stated)	6%	-9%	5%
21	COc1ccc(C2NC(=O)c3c(sc4c3CCN(C)C4)N2)cc1O (configuration not stated)	-1%	-1%	6%
22	CN1CCc2c(sc3c2C(=O)NC(c2cccs2)N3)C1 (configuration not stated)	?	-28%	5%
23	c1ccc2c(Nc3ccc4c(c3)OCCO4)c3c(nc2c1)CCCC3	?	27%	9%
24	Cc1ccccc1NC(=O)/C(C#N)=C\c1ccsc1	?	-19%	8.9µM*
25	Cc1ccc(NC(=O)/C(C#N)=C/c2ccsc2)c(C)c1	-2%	-50%	?
26	Cc1cc(-c2ccccc2)nc(SCC(=O)c2cccc([N+](=O)[O-])c2)n1	?	-1%	3%
27	COc1ccc(-c2cc(C)nc(SCC(=O)c3cccc([N+](=O)[O-])c3)n2)cc1	21µM*	0%	0%
28	COCCN(Cc1ccco1)C(=O)c1cc2c(Cl)nc3ccc(C)cc3c2s1	?	-3%	-1%
29	COc1ccc(C2c3c(ncn(CCCO)c3=N)Oc3ccc4ccccc4c32)cc1 (configuration not stated)	?	-3%	7%
30	COc1cccc(C2c3c(ncn(-c4ccc(-c5ccccc5)cc4)c3=N)Oc3ccc4ccccc4c32)c1 (configuration not stated)	?	nt	nt

entry	A549 tox	ClpP mod	TCR act
16	3%	nt	-5%
17	-5%	nt	nt
18	-7%	-1%	nt
19	4%	18µM*	nt
20	0%	4%	nt
21	0%	?	nt
22	-3%	25µM*	1%
23	-2%	nt	11%
24	0%	3%	2%[46.1 µM]
25	1%	0%	-3%[46.1 µM]
26	-4%[1.84 µM]	1%	nt
27	-22%	0%	-3%
28	3%	-2%	nt
29	-11%	nt	5%
30	-3%	nt	nt

# Brought forward from above: 4 compounds, followed by the next part.
entry	smiles	Nrf2 inh	miR-21 reporter	Nrf2 activator
27	COc1ccc(-c2cc(C)nc(SCC(=O)c3cccc([N+](=O)[O-])c3)n2)cc1	21µM*	0%	0%
28	COCCN(Cc1ccco1)C(=O)c1cc2c(Cl)nc3ccc(C)cc3c2s1	?	-3%	-1%
29	COc1ccc(C2c3c(ncn(CCCO)c3=N)Oc3ccc4ccccc4c32)cc1 (configuration not stated)	?	-3%	7%
30	COc1cccc(C2c3c(ncn(-c4ccc(-c5ccccc5)cc4)c3=N)Oc3ccc4ccccc4c32)c1 (configuration not stated)	?	nt	nt
31	N=c1c2c(ccn1CCCc1ccccc1)Oc1ccc3ccccc3c1C2c1ccccc1 (configuration not stated)	15µM*	nt	nt
32	N=c1c2c(ccn1-c1ccccc1)Oc1ccc3ccccc3c1C2c1ccccc1 (configuration not stated)	16µM*	nt	nt
33	C=CCOc1cccn2c(N(C)C(=O)c3ccncc3)c(CC)nc12	nt	nt	0%
34	Cc1ccc(-n2nc(C)c3c(C)cc(=O)n(CC(=O)NC(C)C)c32)cc1	?	-2%	-1%
35	Cc1ccc([N+](=O)[O-])cc1CN1CCN(c2ncc(Cc3ccccc3)cn2)CC1	nt	nt	nt
36	c1ccc(OCCOCCSc2ncccn2)cc1	17%	-33%	4%
37	Cc1cc(C(C)(C)C)ccc1OCC(=O)N/N=C\c1c(C)n(C)n(-c2ccccc2)c1=O	0%	2%	0%
38	O=[N+]([O-])c1ccc(N/N=C2\CC3CC=CC23)cc1 (configuration not stated)	?	0%	8%
39	O=[N+]([O-])c1ccc(N/N=C2\CC3CC=CC23)c([N+](=O)[O-])c1 (configuration not stated)	23µM*	1%	4%
40	CC(C)Cc1ccc(CN2CCCC(NC(=O)c3ccnn3C)C2)cc1 (configuration not stated)	13µM*	19%	0%
41	c1ccc(Cn2c(-c3ccccc3)nc3nc4ccccc4nc32)cc1	?	-1%	0%
42	Clc1cccc(-c2nc3nc4ccccc4nc3n2Cc2ccccc2)c1	-6%	0%	0%

entry	A549 tox	ClpP mod	TCR act
27	-22%	0%	-3%
28	3%	-2%	nt
29	-11%	nt	5%
30	-3%	nt	nt
31	15µM*	nt	nt
32	?	nt	nt
33	nt	4%	nt
34	-1%	-4%	nt
35	nt	-1%	nt
36	-5%	20µM*	-1%
37	-6%	nt	-6%
38	?	-2%	3%
39	?	nt	-108%
40	-19%	-1%	3%
41	-11%	32µM*	-6%[46.1 µM]
42	6%	?	-4%[46.1 µM]

# Bioassay records from PubChem.
